Columns and labels:
Settings in all cases: both partners purified
[1] = target: T1, Flag-MTA1(454–715), expressed in 293T cells (UniProt Q13330 454-715); test: pull-down; Flag-tagged MTA1 proteins (with what came with them) purified from 293T whole cell extracts on anti-Flag M2 agarose beads and eluted, then on immobilised H3 tail peptide; western blot
T1 construct: also called MTA1 C-terminal fragment; source: also purified from it on anti-Flag M2 agarose beads
T1 sequence (looked up): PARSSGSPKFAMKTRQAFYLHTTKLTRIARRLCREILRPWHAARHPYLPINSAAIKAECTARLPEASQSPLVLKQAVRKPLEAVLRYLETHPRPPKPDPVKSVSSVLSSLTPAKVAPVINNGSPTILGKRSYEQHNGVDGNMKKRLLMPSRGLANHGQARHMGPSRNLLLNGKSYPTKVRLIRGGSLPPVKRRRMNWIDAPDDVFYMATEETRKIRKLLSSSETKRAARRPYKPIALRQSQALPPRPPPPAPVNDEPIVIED

[2] = target: T2, Flag-MTA1 full length, expressed in 293T cells (UniProt Q13330 1-715); test: as above
T2 construct: MTA1; the anti-Flag purified preparation carried endogenous HDAC1/2 and RbAp48; also called full-length Flag-MTA1; 2XFlag-tagged MTA1; source: also purified from it on anti-Flag M2 agarose beads
T2 sequence (looked up): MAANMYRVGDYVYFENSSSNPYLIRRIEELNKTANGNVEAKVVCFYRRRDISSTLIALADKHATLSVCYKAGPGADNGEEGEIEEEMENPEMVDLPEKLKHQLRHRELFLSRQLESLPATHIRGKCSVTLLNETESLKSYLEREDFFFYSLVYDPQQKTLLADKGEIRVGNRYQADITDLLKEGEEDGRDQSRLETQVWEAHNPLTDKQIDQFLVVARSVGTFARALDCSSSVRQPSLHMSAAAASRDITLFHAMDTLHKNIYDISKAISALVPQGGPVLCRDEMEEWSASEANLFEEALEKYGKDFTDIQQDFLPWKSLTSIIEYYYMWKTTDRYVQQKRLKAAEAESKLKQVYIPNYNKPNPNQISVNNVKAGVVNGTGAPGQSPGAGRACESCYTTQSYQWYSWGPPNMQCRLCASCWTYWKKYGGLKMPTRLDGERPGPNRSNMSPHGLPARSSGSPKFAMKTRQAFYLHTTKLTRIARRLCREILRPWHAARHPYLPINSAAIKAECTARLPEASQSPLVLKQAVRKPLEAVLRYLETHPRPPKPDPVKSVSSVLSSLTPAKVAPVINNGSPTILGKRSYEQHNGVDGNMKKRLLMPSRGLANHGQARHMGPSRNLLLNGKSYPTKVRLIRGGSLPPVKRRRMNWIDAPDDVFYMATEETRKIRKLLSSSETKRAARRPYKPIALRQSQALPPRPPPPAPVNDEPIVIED

6×His-MTA2(427–668) = target: T3, 6×His-MTA2(427–668) (UniProt O94776 427-668); test: pull-down; recombinant 6xHis protein purified from E. coli on immobilised H3 peptide, with 0.5 mg/ml BSA; Coomassie blue staining
T3 construct: also called recombinant MTA2 C-terminal region; source: E. coli, purified (nickel beads)
T3 sequence (looked up): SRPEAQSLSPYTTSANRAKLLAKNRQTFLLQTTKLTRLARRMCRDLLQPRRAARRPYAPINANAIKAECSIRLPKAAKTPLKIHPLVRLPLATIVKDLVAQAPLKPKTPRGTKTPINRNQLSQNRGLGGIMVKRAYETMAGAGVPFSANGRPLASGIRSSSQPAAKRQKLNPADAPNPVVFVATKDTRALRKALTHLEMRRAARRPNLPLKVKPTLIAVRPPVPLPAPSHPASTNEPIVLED

6xHis-MTA1(454–715) = target: T4, 6xHis-MTA1(454–715) (UniProt Q13330 454-715); test: as above
T4 construct: also called recombinant MTA1 C-terminal domain; H3BD of MTA1; source: E. coli, purified (nickel beads)
T4 sequence (looked up): T1 sequence (looked up)

Measured: binding result

B1: histone H3 N-terminal tail peptide ([…]), unmodified, C-terminal biotin (peptide)
peptide: not shown
modifications: C-terminal biotin
notes: histone H3 N-terminal […]; linker before the C-terminal biotin; also called H3 peptide; H3 tail peptide; source: synthetic peptide (Scilight Biotechnology LLC)
binds: all assays above

Source: paper PMC3562248, “The MTA family proteins as novel histone H3 binding proteins” (Cell & Bioscience, 2013)
